Like-named read-outs stand apart in the source and are kept apart here.
Legend:
GG dinucleotide [d(GpG)] = experiment: Photoactivation and binding to GG dinucleotide; settings: 1 mM d(GpG), 457.9 nm, 20 mW, 60 minutes; NMR and mass spectrometry
Experimental: In more detail irradiation was carried out using an argon-krypton ion laser (Coherent Innova 70C Spectrum) equipped with a fibre optic (FT-600-UMT, Ø (diameter) 600 μm; Elliot Scientific Ltd.) to deliver light (λ=457.9 nm, 488 nm, 647.1 nm) directly into the sample within the magnet of the NMR spectrometer. The laser output, after the fibre, was in the range of 10 to 75 mW, as measured by a Coherent 210 power meter. 1D ^1H and 2D [^1H,^15N] HSQC spectra were recorded on a Bruker DMX 500 NMR spectrometer (^1H 500.13 MHz, ^15N 50.7 MHz) at a pH value of 5 using sodium 3-(trimethylsilyl)propionate-2,2,3,3-d4 (TSP, 0 ppm) as internal δ (^1H) standard. When cis,trans-[Pt^IV(en)(N3)2(OH)2] was analysed in a similar way 2D [^1H,^15N] HSQC-TOCSY spectra were also recorded. All δ (^15N) were referenced externally to ^15NH4^+ at δ=0. pH values were measured with a pH-meter (Orion 710A) equipped with a microcombination electrode (Aldrich) calibrated with Aldrich standard buffers (pH 4, 7 and 10) and was adjusted with dilute solutions of HClO4 and NaOH. No correction was made for ^2H isotope effects on the glass electrode.
The procedure of example 8 was repeated with a solution containing 1 mM GG dinucleotide [d(GpG)]. […]

[1] = Stability in aqueous solution (NMR); settings: 5 mM aqueous solution, after 2 months
[2] = Stability in aqueous glutathione (NMR); settings: 2 mM in 5 mM aqueous glutathione, kept in the dark for 8 weeks
[3] = Stability in 0.1M aqueous NaCl (NMR); settings: 5 mM in 0.1M aqueous NaCl, after 2 days
[4] = Stability in blood plasma (NMR); settings: 2 mg in 0.5 mls blood plasma, after 2 weeks
A2780CIS = experiment: Phototoxicity, neutral red dye uptake, A2780CIS cells; type: cell-based
Experimental: (§1) 2×6 ft Cosmolux RA Plus (Cosmedico), 15500/100 W light sources were used, each filtered to attenuate UVB/UVC wavelengths. Irradiance was measured with a Waldmann PUMA meter, calibrated to the source using a double grating Spectroradiometer (Bentham, UK).
(§2) Immediately before use, the compounds were dissolved in warm Earle's Balanced Salt Solution (EBSS), sonicated and vortexed to assist dissolution. For experiments, cells were seeded at densities of 3- or 5×10^4 cells/cm^2. After overnight incubation, washed cells were incubated with test compounds in EBSS for 1 h at 310 K/5% CO2. Cells were then irradiated with 5 J cm^−2 glass filtered UVA (1.77 mW cm^−2: λmax 365 nm) for 50 min. Test compounds were removed and cells either prepared immediately for photogenotoxicity assays, or incubated with complete medium for 24 h before assessing phototoxicity. Control plates were treated identically to the test plates and sham irradiated.
(§3) Phototoxicity was monitored by measuring the uptake of neutral red dye into viable cells. Briefly, after irradiation cells were washed and then incubated with DMEM containing 5% FCS, 1% NEAA and 50 μg ml^−1 neutral red dye for 3 h at 310 K/5% CO2. […] Absorbance was read at 540 nm against a solubilisation solution as blank. […] Goodness of fit was determined from the R^2 values of the curves and 95% confidence intervals.

HaCaT = experiment: Phototoxicity, neutral red dye uptake, HaCaT cells; type: cell-based
Experimental: as §1, §2, §3

A2780 = experiment: Phototoxicity, neutral red dye uptake, A2780 cells; type: cell-based
Experimental: as §1, §2, §3

| Substance | Binding to GG dinucleotide after blue light irradiation (GG dinucleotide [d(GpG)]) | Stability in aqueous solution (hydrolysis) [1] | Reduction by glutathione [2] | Azide ligand substitution by chloride [3] | Stability in blood plasma (reduction product) [4] | IC50 (A2780CIS; read-out: IC50 Value A2780CIS 365 nm, irradiated 5 J cm^-2 UVA, λmax 365 nm, 50 min, neutral red uptake after 24 h) [µM] | IC50 (A2780CIS; read-out: IC50 Value A2780CIS Dark, dark, sham irradiated control) [µM] | IC50 (HaCaT; read-out: IC50 Value HaCaT 365 nm, irradiated 5 J cm^-2 UVA, λmax 365 nm, 50 min, neutral red uptake after 24 h) [µM] | IC50 (HaCaT; read-out: IC50 Value HaCaT Dark, dark, sham irradiated control) [µM] | IC50 (A2780; read-out: IC50 Value A2780 365 nm, irradiated 5 J cm^-2 UVA, λmax 365 nm, 50 min, neutral red uptake after 24 h) [µM] | IC50 (A2780; read-out: IC50 Value A2780 Dark, dark, sham irradiated control) [µM] |
| --- | --- | --- | --- | --- | --- | --- | --- | --- | --- | --- | --- |
| Cis,trans,cis-[Pt^IV(N3)2(OH)2(NH3)2] | binding of species containing the cis-[Pt^II(NH3)2] moiety to GG had taken place | No sign of any hydrolysis was detected | No evidence of any reduction | No evidence of any azide ligand substitution | No sign of any reduction product was detected |  |  |  |  |  |  |
| Trans,trans,trans-[Pt(N3)2(OH)2(NH3)(2-bromo-3-methylpyridine)] |  |  |  |  |  | 38.1 | 54.4 | 59.2 | 98.8 | 15.8 | 31.3 |

Reference: US7928097B2, “Photoreactive compounds and compositions” (priority 2001, dated 2011)
